Reference: article PMC7606612, “Identification of HMGA2 inhibitors by AlphaScreen-based ultra-high-throughput screening assays” (Scientific Reports, 2020)

Chains of the proteins cited; added tags and fusions are not shown. Residues count along the entry.
UniProt P52927, 2-108 limits assumed: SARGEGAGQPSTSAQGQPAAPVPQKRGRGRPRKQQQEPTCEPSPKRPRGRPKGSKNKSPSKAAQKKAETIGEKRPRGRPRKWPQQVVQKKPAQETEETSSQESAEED

Experiments:
[1] = target: HMGA2-DNA interactions (Mus musculus, UniProt P52927); experiment: Protein-DNA interaction ELISA (PDI-ELISA) assay; settings: inhibition of HMGA2-DNA interactions
[2] = target: HMGA2 (Mus musculus, UniProt P52927); experiment: Isothermal titration calorimetry (ITC), titration into HMGA2; settings: for HMGA2 Binding site: number of sites

SMILES: Cc1ccc(C(=O)Nc2cc(S(=O)(=O)O)cc3ccc(S(=O)(=O)O)cc23)cc1NC(=O)Nc1cc(C(=O)Nc2cc(S(=O)(=O)O)cc3ccc(S(=O)(=O)O)cc23)ccc1C
- IC50 [1]: 6.95 µM
- HMGA2 Ka (M^−1) ([2]; first type of binding sites): 7.17 ± 4.68 × 10^6 M^−1
- HMGA2 Binding site ([2]; first type): 2.12
- HMGA2 Binding site ([2]; second type): 0.3
- HMGA2 Ka (M^−1) ([2]; second type of binding sites): 2.27 ± 0.57 × 10^5 M^−1
